The values that follow come from US20240335569A1, “FIBROBLAST ACTIVATION PROTEIN INHIBITORS AND USE THEREOF” (3 B PHARMACEUTICALS GMBH, priority 2021, published 2024).

The chains behind the UniProt entries cited, without tags or fusion partners. Residues count along the entry.
UniProt Q12884, whole entry: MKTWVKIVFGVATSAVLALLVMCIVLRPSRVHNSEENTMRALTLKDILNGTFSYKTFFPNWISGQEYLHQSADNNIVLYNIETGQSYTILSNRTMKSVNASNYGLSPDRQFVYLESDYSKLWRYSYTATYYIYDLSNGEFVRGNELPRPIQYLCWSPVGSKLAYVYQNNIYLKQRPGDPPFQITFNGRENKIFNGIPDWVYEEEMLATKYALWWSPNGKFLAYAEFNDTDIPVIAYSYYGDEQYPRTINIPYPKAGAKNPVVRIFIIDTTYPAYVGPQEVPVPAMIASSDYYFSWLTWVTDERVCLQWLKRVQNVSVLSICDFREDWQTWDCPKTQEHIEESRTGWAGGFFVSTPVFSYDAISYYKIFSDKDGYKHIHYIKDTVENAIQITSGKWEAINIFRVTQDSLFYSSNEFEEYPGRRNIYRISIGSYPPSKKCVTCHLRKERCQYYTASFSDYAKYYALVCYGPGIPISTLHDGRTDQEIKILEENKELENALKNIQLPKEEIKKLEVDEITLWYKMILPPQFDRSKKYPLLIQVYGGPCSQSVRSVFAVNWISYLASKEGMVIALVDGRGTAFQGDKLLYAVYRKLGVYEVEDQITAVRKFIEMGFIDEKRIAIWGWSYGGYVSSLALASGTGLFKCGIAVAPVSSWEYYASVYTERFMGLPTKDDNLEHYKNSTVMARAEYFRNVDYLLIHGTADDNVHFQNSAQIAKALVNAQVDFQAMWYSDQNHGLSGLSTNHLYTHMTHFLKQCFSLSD
UniProt Q12884, 26-760 limits assumed: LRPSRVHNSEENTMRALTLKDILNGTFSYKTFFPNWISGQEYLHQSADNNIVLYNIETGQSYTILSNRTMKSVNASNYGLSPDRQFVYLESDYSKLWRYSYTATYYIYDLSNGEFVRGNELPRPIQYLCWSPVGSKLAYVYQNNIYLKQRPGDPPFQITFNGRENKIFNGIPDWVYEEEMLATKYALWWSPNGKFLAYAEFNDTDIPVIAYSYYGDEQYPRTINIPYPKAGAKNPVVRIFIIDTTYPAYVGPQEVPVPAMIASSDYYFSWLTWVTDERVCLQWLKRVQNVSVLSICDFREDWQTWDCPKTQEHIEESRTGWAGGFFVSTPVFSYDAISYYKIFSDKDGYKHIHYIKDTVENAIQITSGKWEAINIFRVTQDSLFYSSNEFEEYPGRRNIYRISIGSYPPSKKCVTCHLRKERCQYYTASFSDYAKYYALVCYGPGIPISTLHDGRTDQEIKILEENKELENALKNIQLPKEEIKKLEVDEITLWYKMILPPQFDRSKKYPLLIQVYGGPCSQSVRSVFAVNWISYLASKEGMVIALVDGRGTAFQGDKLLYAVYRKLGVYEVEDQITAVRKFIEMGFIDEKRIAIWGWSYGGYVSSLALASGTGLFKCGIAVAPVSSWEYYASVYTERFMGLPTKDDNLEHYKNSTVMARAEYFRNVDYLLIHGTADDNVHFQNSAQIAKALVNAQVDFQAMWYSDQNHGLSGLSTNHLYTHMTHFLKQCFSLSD
UniProt P48147, whole entry: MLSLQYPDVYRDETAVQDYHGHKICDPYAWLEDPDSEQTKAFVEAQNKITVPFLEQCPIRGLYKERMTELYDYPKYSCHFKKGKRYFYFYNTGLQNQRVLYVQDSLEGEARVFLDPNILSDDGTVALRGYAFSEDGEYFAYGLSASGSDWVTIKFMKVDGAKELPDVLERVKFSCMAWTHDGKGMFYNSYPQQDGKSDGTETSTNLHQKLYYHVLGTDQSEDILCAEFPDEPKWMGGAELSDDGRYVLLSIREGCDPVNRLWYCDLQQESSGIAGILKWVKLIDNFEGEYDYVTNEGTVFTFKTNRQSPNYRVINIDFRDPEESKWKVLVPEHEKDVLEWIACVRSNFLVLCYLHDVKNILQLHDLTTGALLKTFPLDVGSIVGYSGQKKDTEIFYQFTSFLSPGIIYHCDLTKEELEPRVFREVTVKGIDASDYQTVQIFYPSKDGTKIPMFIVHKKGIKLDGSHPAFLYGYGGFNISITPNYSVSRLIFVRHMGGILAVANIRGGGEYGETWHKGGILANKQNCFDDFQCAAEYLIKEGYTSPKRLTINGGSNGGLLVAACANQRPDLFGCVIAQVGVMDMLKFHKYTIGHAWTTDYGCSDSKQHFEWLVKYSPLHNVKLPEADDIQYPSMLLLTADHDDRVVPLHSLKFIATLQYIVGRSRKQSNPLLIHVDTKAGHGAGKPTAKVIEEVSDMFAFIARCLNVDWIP
UniProt P27487, whole entry: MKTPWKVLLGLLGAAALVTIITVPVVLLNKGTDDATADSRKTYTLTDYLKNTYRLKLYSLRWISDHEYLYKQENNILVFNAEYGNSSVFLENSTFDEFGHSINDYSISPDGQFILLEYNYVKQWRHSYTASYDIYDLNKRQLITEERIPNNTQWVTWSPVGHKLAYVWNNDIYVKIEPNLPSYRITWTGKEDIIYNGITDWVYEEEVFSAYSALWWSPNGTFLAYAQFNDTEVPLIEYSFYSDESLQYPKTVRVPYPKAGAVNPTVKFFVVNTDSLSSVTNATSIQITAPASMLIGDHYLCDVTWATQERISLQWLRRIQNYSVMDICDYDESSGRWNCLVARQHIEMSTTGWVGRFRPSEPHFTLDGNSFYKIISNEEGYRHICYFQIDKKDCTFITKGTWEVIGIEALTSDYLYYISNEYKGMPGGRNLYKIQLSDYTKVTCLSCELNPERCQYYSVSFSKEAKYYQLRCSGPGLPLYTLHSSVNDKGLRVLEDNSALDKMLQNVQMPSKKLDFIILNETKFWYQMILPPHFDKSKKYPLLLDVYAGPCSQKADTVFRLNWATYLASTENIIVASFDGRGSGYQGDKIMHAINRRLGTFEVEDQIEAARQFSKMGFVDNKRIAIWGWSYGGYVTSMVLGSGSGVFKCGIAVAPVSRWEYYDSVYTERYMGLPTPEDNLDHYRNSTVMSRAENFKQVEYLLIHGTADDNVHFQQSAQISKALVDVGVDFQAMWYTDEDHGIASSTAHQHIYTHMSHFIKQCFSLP

For assay [1], the target named is FAP-expressing human WI-38 fibroblasts (Homo sapiens (Human), UniProt Q12884). Put plainly: FACS binding assay (competitive, Cy5-labeled 3BP-2935). Conditions: FAP-expressing WI-38 fibroblasts.
In another assay the target is Human recombinant FAP (Homo sapiens (Human), UniProt Q12884). Kind of assay: FAP protease activity assay (human), FRET-based. Format: biochemical.
In the next assay the target is recombinant human PREP (Homo sapiens (Human), UniProt P48147). Put plainly: PREP protease activity assay. In kind it is biochemical.
The target of a further assay is Recombinant human DPP4 (Homo sapiens (Human), UniProt P27487). Kind of assay: DPP4 protease activity assay. Format: biochemical.

Structures are written as SMILES.

On to `N#C[C@@H]1CCCN1C(=O)CNC(=O)c1ccnc2cc(-c3ccc(C(=O)O)cc3)ccc12`, for which the “pIC50 (FACS)” value in assay [1] was 8.4. Further, the “pIC50 (Activity)” value at Human recombinant FAP amounted to 8.7. The “pIC50 (PREP)” value at recombinant human PREP is below 6. For the same compound, the “pIC50 (DPP4)” value on Recombinant human DPP4 is below 6.
